Calls of active or inactive are those of the source. The calls are words filed in the database; no cut-off is given here.
Experiments:
[1] = biological target: T1, beta-catenin-B-cell lymphoma 9 protein complex (Homo sapiens) (UniProt P35222+O00512); conditions: SW480, 1 to 4 uM
[2] = biological target: T1, beta-catenin-B-cell lymphoma 9 protein complex (Homo sapiens); conditions: SW480, 1 to 4 uM; remark: listed apart in the source
[3] = biological target: T1, beta-catenin-B-cell lymphoma 9 protein complex (Homo sapiens); conditions: MDA-MB-231, 2 to 4 uM
[4] = biological target: T1, beta-catenin-B-cell lymphoma 9 protein complex (Homo sapiens); conditions: SW480, 1 to 4 uM; remark: listed apart in the source
[5] = biological target: T1, beta-catenin-B-cell lymphoma 9 protein complex (Homo sapiens); conditions: SW480, 1 to 4 uM; remark: listed apart in the source
Homo sapiens = species on record: Homo sapiens; experiment: Selectivity index, ratio of Ki for inhibition of C-terminal 6x-histidine tagged beta-catenin (138 to 686 residues) (unknown origin) expressed in Escherichia coli BL21 DE3/N-terminally biotinylated human E-cadherin (824 to 877 residues) protein-protein interactions by Alpha-screen assay to Ki for …

Sequences of proteins named here, by UniProt entry; tags and fusion partners are left off. A change or cut given only in a name is not applied to a line headed by its entry.
UniProt P35222: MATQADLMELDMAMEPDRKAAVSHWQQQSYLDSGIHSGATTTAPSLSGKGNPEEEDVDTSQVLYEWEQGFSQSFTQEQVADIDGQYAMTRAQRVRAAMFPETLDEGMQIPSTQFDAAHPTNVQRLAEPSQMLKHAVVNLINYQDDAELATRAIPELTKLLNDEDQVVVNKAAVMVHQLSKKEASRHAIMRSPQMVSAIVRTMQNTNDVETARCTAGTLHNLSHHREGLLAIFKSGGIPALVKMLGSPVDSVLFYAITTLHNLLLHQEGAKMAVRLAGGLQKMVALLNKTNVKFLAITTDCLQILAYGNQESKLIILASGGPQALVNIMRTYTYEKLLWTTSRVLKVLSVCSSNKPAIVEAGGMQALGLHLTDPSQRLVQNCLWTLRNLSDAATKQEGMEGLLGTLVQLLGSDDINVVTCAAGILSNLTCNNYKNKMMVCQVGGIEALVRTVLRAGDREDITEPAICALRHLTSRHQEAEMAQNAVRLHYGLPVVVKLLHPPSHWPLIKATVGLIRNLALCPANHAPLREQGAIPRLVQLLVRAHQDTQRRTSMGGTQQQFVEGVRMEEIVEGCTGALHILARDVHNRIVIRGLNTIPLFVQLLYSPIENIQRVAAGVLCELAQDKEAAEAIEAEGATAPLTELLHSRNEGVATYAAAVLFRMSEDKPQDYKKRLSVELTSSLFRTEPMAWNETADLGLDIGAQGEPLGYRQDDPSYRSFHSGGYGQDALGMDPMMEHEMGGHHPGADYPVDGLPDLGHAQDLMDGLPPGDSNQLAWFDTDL
UniProt O00512: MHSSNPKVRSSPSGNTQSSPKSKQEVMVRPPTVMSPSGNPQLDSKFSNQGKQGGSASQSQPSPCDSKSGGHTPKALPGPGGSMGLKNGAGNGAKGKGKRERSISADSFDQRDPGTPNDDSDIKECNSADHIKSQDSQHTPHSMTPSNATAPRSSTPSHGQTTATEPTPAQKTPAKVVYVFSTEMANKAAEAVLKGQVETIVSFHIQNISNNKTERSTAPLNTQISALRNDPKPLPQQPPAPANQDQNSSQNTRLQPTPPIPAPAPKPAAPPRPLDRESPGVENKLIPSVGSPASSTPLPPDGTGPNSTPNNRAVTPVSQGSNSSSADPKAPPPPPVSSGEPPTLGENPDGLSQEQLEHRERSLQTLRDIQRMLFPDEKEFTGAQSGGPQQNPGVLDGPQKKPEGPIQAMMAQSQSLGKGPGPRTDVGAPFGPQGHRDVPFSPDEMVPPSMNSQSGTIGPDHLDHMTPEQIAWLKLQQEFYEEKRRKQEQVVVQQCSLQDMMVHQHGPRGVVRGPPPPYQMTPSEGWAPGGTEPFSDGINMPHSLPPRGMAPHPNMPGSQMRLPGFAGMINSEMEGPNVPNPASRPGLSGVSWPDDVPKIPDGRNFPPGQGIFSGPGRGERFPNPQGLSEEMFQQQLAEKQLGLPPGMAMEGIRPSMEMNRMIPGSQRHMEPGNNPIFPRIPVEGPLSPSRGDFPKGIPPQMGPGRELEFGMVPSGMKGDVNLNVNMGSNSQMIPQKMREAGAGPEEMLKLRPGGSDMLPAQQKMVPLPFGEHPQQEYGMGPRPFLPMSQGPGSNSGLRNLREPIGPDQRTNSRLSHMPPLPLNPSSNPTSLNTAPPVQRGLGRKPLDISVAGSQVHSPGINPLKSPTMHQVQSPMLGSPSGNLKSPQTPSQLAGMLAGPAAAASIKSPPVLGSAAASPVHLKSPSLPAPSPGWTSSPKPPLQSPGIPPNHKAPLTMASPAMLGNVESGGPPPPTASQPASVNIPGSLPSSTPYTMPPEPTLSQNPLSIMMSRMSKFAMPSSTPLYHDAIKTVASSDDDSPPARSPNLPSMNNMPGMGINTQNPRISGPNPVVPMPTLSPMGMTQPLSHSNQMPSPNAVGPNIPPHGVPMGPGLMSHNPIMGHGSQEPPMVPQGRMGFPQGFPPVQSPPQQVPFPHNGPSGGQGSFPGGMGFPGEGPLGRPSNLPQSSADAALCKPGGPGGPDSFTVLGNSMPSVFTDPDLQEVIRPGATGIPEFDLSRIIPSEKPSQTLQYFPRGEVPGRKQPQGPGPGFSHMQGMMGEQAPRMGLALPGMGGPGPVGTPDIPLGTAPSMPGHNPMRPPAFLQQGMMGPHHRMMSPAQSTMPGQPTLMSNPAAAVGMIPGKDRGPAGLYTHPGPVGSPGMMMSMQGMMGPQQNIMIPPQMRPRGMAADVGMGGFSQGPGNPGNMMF

For `O=C(Nc1ccc(O[C@H]2CCNC2)c(-c2ccc(F)cc2)c1)c1ccc(O[C@H]2CCNC2)c(-c2ccc(F)c(F)c2)c1`, the inhibition [1] was “Active”, the inhibition [2] was “Active” and the inhibition [3] was greater than 50%. The inhibition [4] was “inactive” and the inhibition [5] was “Active”.
`O=C(Nc1ccc(O[C@@H]2CCNC2)c(-c2ccc(F)cc2)c1)c1ccc(O[C@H]2CCNC2)c(-c2ccc(F)c(F)c2)c1` gave a Ratio Ki (Homo sapiens) of 40.
Compound `O=C(Nc1ccc(O[C@H]2CCNC2)c(-c2ccc(F)cc2)c1)c1ccc(O[C@@H]2CCNC2)c(-c2ccc(F)c(F)c2)c1` has a Ratio Ki (Homo sapiens) of 19.
`O=C(Nc1ccc(O[C@@H]2CCNC2)c(-c2ccc(F)cc2)c1)c1ccc(O[C@@H]2CCNC2)c(-c2ccc(F)c(F)c2)c1` showed a Ratio Ki (Homo sapiens) of 52.

Source: ChEMBL document CHEMBL4419168, “Substituted n-([1,1''-biphenyl]-3-yl)-[1,1''-biphenyl]-3-carboxamide analogs as inhibitors for beta-catenin/b-cell lymphoma 9 interactions” (2018)
